Source: patent US20250388605A1, “HETEROBIFUNCTIONAL COMPOUNDS AND METHODS OF TREATING DISEASE” (Halda Therapeutics OpCo, Inc., priority 2022, published 2025)

Experiments:
[1] = target: BRD4-BD1 (Homo sapiens, UniProt O60885); assay: Binding affinity to BRD4-BD1 (bromoKdELECT assay); conditions: 11-point 3-fold dilution series
Procedure: (§1) Compounds were tested using a bromoKdELECT assay. T7 phage strains displaying bromodomains were grown in parallel in 24-well blocks in an E. coli host derived from the BL21 strain. E. coli were grown to log-phase and infected with T7 phage from a frozen stock (multiplicity of infection=0.4) and incubated with shaking at 32° C. until lysis (90-150 minutes). The lysates were centrifuged (5,000×g) and filtered ([…]) to remove cell debris. Streptavidin-coated magnetic beads were treated with biotinylated small molecule or acetylated peptide ligands for 30 minutes at room temperature to generate affinity resins for bromodomain assays. The liganded beads were blocked with excess biotin and washed with blocking buffer (SeaBlock (Pierce), 1% BSA, 0.05% Tween 20, 1 mM DTT) to remove unbound ligand and to reduce nonspecific phage binding. Binding reactions were assembled by combining bromodomains, liganded affinity beads, and test compounds in 1× binding buffer (17% SeaBlock, 0.33×PBS, 0.04% Tween 20, 0.02% BSA, 0.004% Sodium azide, 7.4 mM DTT). Test compounds were prepared as 1000× stocks in 100% DMSO. Kds were determined using an 11-point 3-fold compound dilution series with one DMSO control point. All compounds for Kd measurements are distributed by acoustic transfer (non-contact dispensing) in 100% DMSO. […] The bromodomain concentration in the eluates was measured by qPCR.

[2] = target: BRD4-BD2 (Homo sapiens, UniProt O60885); assay: Binding affinity to BRD4-BD2 (bromoKdELECT assay); conditions: 11-point 3-fold dilution series
Procedure: as §1

[3] = system: T-Rex 293 cell line SC3 cells having increased expression of androgen receptor protein due to exposure to doxycycline; assay: Cellular growth inhibition, T-Rex 293 SC3 cells with doxycycline (increased androgen receptor expression), CellTiter-Glo; conditions: T-Rex 293 SC3 cells with 10 ng/mL doxycycline (increased androgen receptor expression), 72 hours, CellTiter-Glo 2.0
Procedure: (§2) The following types of cells were prepared for this experiment: (i) a T-Rex 293 cell line having increased expression of androgen receptor protein due to exposure to doxycycline and (ii) a T-Rex 293 cell line lacking increased expression of androgen receptor protein. Ability of the test compounds to inhibit proliferation of the foregoing cell types was evaluated according to the procedures set forth below.
(§3) The doxycycline-inducible androgen receptor protein expressing cell line was established using the following protocol: T-Rex 293 cells were purchased from Invitrogen (Cat #R71007) and transfected using Lipofectamine 2000 with the wild-type androgen receptor protein sequence cloned into the pcDNA4/TO vector. Transfected cells were selected using 400 μg/mL Zeocin (Invitrogen Cat #R25001). […] Clones were analyzed for expression of androgen receptor protein in the presence and absence of 10 ng/mL doxycycline (Sigma Cat #D9891), and a single doxycycline-inducible clone (hereinafter “SC3”) was selected for use in downstream assays. […]
(§4) At the end of the treatment duration, cell viability was quantified with CellTiter-Glo 2.0 reagent (Promega Cat #G9243). […] Following incubation, the plates were spun at 3000×g for 30 seconds, then sealed with an optical adhesive cover, and luminescence readings were measured with an EnVision Plate Reader.
(§5) Data was normalized using zero luminescence for baseline. […]

[4] = system: T-Rex 293 cell line SC3 cells lacking increased expression of androgen receptor protein; assay: Cellular growth inhibition, T-Rex 293 SC3 cells without doxycycline (no increased androgen receptor expression), CellTiter-Glo; conditions: T-Rex 293 SC3 cells not exposed to doxycycline (no increased androgen receptor expression), 72 hours
Procedure: as §2, §3, §4, §5

[5] = system: VCaP cells; assay: Cellular growth inhibition assay for VCaP cells, CellTiter-Glo; conditions: 72 hours
Procedure: VCaP cells were purchased from American Type Cell Culture (ATCC Cat #CRL2876) and then seeded on poly-D-lysine coated, black clear-bottom 384-well plates at 5000/well in 25 μL Dulbecco's Modified Eagle Medium (DMEM) supplemented with 10% w/w Fetal bovine serum (FBS) and 1% w/w Pen-Strep. Pen-Strep is a commercially available mixture of penicillin G and streptomycin, which is used in mammalian cell culture media to prevent bacterial contamination. Dulbecco's Modified Eagle Medium (DMEM) supplemented with 10% w/w fetal bovine serum (FBS) and 1% w/w Pen-Strep is herein referred to as Treatment Medium. Following seeding of cells in the plates, the plates were spun at 300×g for 30 seconds, then equilibrated to room temperature for 30 minutes, and then deposited in a humidified tissue culture incubator maintained at 37° C. with 5% CO2. […]
as §4, §5

CCS(=O)(=O)Cc1ccc(Oc2cccc(OCCN3CCN(c4ncc(C(=O)N[C@H]5C(C)(C)[C@H](Oc6ccc(C#N)c(Cl)c6)C5(C)C)cn4)CC3)c2F)c(-c2cn(C)c(=O)c3[nH]ccc23)c1
Kd [1]: 500 to 2500 nM | Kd [2]: < 50 nM | GI50 [3]: < 500 nM | GI50 [4]: < 500 nM | GI50 [5]: < 500 nM
